Test results reported in ChEMBL document CHEMBL5506067, “Searching for Synthetic Opioid Rescue Agents: Identification of a Potent Opioid Agonist with Reduced Respiratory Depression” (J Med Chem, 2024).

By UniProt entry, the sequences of proteins in these tests, tags left out.
UniProt P41146, whole entry: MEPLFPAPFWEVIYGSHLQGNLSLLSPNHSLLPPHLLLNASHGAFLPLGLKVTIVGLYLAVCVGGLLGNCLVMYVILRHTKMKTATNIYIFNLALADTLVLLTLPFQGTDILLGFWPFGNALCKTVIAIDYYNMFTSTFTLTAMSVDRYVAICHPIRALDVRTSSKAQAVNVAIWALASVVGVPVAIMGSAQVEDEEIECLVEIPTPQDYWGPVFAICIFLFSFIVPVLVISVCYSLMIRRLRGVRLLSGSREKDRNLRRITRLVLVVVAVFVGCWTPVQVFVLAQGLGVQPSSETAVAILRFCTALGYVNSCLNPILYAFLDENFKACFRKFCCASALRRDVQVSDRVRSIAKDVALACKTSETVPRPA

Biological target: Nociceptin receptor (Homo sapiens, UniProt P41146)
Assay: Agonist activity at human NOR expressed in CHO-K1 cells assessed as decrease in cAMP level incubated for 30 mins in presence of forskolin by HitHunter cAMP analysis relative to control
Conditions: filed as agonist

## CN(C)[C@]1(c2ccc(Br)cc2)CC[C@](O)(CCc2ccccc2)CC1
  Emax: 101%
